Test results reported in PubChem BioAssay (NCI).
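A five-concentration, 48-hour dose response in 96-well plates underlies each endpoint, interpolated linearly between surrounding concentrations. GI50: concentration for 50% inhibition of growth. At the TGI there is no net growth.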

How the values were obtained:
Assay in all cases: NCI tumour cell line growth inhibition, 48 h
[1] = system: 786-0 renal
[2] = system: A498 renal
[3] = system: A549 NSCLC
[4] = system: ACHN renal
[5] = system: BT-549 breast
[6] = system: CAKI-1 renal
[7] = system: CCRF-CEM leukemia
[8] = system: COLO 205 colon
[9] = system: DU-145 prostate
[10] = system: EKVX NSCLC
[11] = system: HCC-2998 colon
[12] = system: HCT-116 colon
[13] = system: HCT-15 colon
[14] = system: HL-60(TB) leukemia
[15] = system: HOP-62 NSCLC
[16] = system: HOP-92 NSCLC
[17] = system: HS 578T breast
[18] = system: HT29 colon
[19] = system: IGROV1 ovarian
[20] = system: K-562 leukemia
[21] = system: KM12 colon
[22] = system: LOX IMVI melanoma
[23] = system: M14 melanoma
[24] = system: MALME-3M melanoma
[25] = system: MCF7 breast
[26] = system: MDA-MB-231 breast
[27] = system: MDA-MB-435
[28] = system: MDA-N
[29] = system: MOLT-4 leukemia
[30] = system: NCI-H226 lung
[31] = system: NCI-H23 lung
[32] = system: NCI-H322M lung
[33] = system: NCI-H460 lung
[34] = system: NCI-H522 lung
[35] = system: NCI/ADR-RES ovarian
[36] = system: OVCAR-3 ovarian
[37] = system: OVCAR-4 ovarian
[38] = system: OVCAR-5 ovarian
[39] = system: OVCAR-8 ovarian
[40] = system: PC-3 prostate
[41] = system: RPMI-8226 leukemia
[42] = system: RXF 393 renal
[43] = system: SF-268 CNS
[44] = system: SF-295 CNS
[45] = system: SK-MEL-2 melanoma
[46] = system: SK-MEL-28 melanoma
[47] = system: SK-MEL-5 melanoma
[48] = system: SK-OV-3 ovarian
[49] = system: SN12C renal
[50] = system: SNB-19 CNS
[51] = system: SNB-75 CNS
[52] = system: SR leukemia
[53] = system: SW-620 colon
[54] = system: T-47D breast
[55] = system: TK-10 renal
[56] = system: U251 CNS
[57] = system: UACC-257 melanoma
[58] = system: UACC-62 melanoma
[59] = system: UO-31 renal

## O=C(OCCC(F)([N+](=O)[O-])[N+](=O)[O-])OCC(F)([N+](=O)[O-])[N+](=O)[O-]
[1]
  GI50: 0.51 µM
  TGI: 1.76 µM
[2]
  GI50: 13 µM
  TGI: 31.4 µM
[3]
  GI50: 8.6 µM
  TGI: 36.2 µM
[4]
  GI50: 1.56 µM
  TGI: 3.96 µM
[5]
  GI50: 2.03 µM
  TGI: 4.73 µM
[6]
  GI50: 1.74 µM
  TGI: 3.29 µM
[7]
  GI50: 0.68 µM
  TGI: > 100 µM
[8]
  GI50: 1.59 µM
  TGI: 3.71 µM
[9]
  GI50: 1.72 µM
  TGI: 3.34 µM
[10]
  GI50: 2.12 µM
  TGI: 5.02 µM
[11]
  GI50: 1.54 µM
  TGI: 3.72 µM
[12]
  GI50: 1.3 µM
  TGI: 2.72 µM
[13]
  GI50: 1.09 µM
  TGI: 14.3 µM
[14]
  GI50: 0.387 µM
  TGI: 9.99 µM
[15]
  GI50: 2.02 µM
  TGI: 4.32 µM
[16]
  GI50: 1.86 µM
  TGI: 4.61 µM
[17]
  GI50: 3.22 µM
  TGI: 23.4 µM
[18]
  GI50: 2.34 µM
  TGI: > 100 µM
[19]
  GI50: 0.917 µM
  TGI: 2.61 µM
[20]
  GI50: 0.32 µM
  TGI: 13.9 µM
[21]
  GI50: 1.15 µM
  TGI: 2.49 µM
[22]
  GI50: 1.78 µM
  TGI: 16.1 µM
[23]
  GI50: 1.78 µM
  TGI: 4.02 µM
[24]
  GI50: 1.74 µM
  TGI: 3.82 µM
[25]
  GI50: 1.83 µM
  TGI: 15.6 µM
[26]
  GI50: 1.85 µM
  TGI: 3.78 µM
[27]
  GI50: 1.47 µM
  TGI: 3.76 µM
[28]
  GI50: 1.17 µM
  TGI: 2.61 µM
[29]
  GI50: 1.64 µM
  TGI: 6.04 µM
[30]
  GI50: 9.1 µM
  TGI: 38.8 µM
[31]
  GI50: 2.16 µM
  TGI: 14.7 µM
[32]
  GI50: 13.8 µM
  TGI: 32.6 µM
[33]
  GI50: 2.99 µM
  TGI: 12.1 µM
[34]
  GI50: 0.563 µM
  TGI: 2.26 µM
[35]
  GI50: 2.13 µM
  TGI: 21 µM
[36]
  GI50: 1.58 µM
  TGI: 3.44 µM
[37]
  GI50: 2.65 µM
  TGI: 19.5 µM
[38]
  GI50: 2.9 µM
  TGI: 7.66 µM
[39]
  GI50: 1.74 µM
  TGI: 17.1 µM
[40]
  GI50: 1.6 µM
  TGI: 3.26 µM
[41]
  GI50: 0.526 µM
  TGI: 3.13 µM
[42]
  GI50: 10.1 µM
  TGI: 23.6 µM
[43]
  GI50: 2.44 µM
  TGI: 19.4 µM
[44]
  GI50: 8.26 µM
  TGI: 23.9 µM
[45]
  GI50: 2 µM
  TGI: 5.03 µM
[46]
  GI50: 2.24 µM
  TGI: 4.22 µM
[47]
  GI50: 1.64 µM
  TGI: 4.09 µM
[48]
  GI50: 7.54 µM
  TGI: 22.5 µM
[49]
  GI50: 1.71 µM
  TGI: 3.33 µM
[50]
  GI50: 5.63 µM
  TGI: 18.6 µM
[51]
  GI50: 6.71 µM
  TGI: 22.8 µM
[52]
  GI50: 0.369 µM
  TGI: 2.58 µM
[53]
  GI50: 0.949 µM
  TGI: 2.35 µM
[54]
  GI50: 1.98 µM
  TGI: 5.67 µM
[55]
  GI50: 2.23 µM
  TGI: 16.4 µM
[56]
  GI50: 2.06 µM
  TGI: 4.61 µM
[57]
  GI50: 2.34 µM
  TGI: 5.78 µM
[58]
  GI50: 1.87 µM
  TGI: 4.19 µM
[59]
  GI50: 1.09 µM
  TGI: 2.61 µM
